Assay results from patent publication US20200262914A1 (MIT, published 2020).

Amino acid sequences for entries named in this document (tags omitted). Residues count along the entry.
UniProt Q07817, 1-209 limits assumed: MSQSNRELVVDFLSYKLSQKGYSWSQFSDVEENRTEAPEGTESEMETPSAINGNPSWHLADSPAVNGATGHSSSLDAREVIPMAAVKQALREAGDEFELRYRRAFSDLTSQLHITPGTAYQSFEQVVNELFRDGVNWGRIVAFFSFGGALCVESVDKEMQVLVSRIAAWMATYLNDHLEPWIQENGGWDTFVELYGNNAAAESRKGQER

Target: T1, human Bcl-xL (residues 1-209) (human, UniProt Q07817 1-209)
T1 construct: range 1-209
Assay: competition FP vs fluoresceinated Bim BH3, solution

Binder: QWAREIGAQLRRMADDLNAQYER (N-terminal acetylation; C-terminal amidation, also called Puma BH3 peptide) [Puma]
- Ki: 1 nM
